Data on 2 compounds can be found in ChEMBL document CHEMBL1132571, “1-aryl-4-[(5-methoxy-1,2,3, 4-tetrahydronaphthalen-1-yl)alkyl]piperazines and their analogues: influence of the stereochemistry of the tetrahydronaphthalen-1-yl nucleus on 5-HT1A receptor affinity and selectivity versus alpha1 and D2 receptors. 5” (J Med Chem, 1999).

The chains behind the UniProt entries cited, without tags or fusion partners.
UniProt P19327, whole entry: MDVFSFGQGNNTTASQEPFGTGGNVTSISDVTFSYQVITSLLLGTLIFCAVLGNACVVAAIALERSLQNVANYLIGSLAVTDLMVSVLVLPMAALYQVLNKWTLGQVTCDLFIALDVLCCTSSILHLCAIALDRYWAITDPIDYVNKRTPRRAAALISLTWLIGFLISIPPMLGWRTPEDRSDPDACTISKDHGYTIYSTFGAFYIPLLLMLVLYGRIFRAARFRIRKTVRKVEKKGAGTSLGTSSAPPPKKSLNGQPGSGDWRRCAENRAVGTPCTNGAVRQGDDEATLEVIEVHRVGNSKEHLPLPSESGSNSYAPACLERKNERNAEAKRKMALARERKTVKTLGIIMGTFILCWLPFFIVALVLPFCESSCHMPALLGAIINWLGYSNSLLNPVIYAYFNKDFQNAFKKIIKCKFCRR

In the assay the target is 5-hydroxytryptamine receptor 1A (Rattus norvegicus, UniProt P19327). In words: In vitro inhibition of [3H]8-OH-DPAT binding to rat 5-HT 1a receptors. The gist of the method:
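Rat hippocampal membranes labelled with [3H]-8-OH-DPAT by standard binding methods, in competition with eight to nine test concentrations. Specific binding was over 80% of total. IC50 derived from inhibition of specific radioligand binding by LIGAND analysis.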

What is called IC50 is the concentration needed to halve the response being measured. `COc1ccccc1N1CCN(CCC(=O)N[C@@H]2CCCc3c(OC)cccc32)CC1`: the IC50 was 320 nM. The compound `COc1ccccc1N1CCN(CCC(=O)N[C@H]2CCCc3c(OC)cccc32)CC1` returned an IC50 of 89 nM.
